Data: patent publication US20150346599A1, “PHOTO-DESTROYABLE QUENCHER AND ASSOCIATED PHOTORESIST COMPOSITION, AND DEVICE-FORMING METHOD” (Rohm and Haas Electronic Materials LLC, priority 2014, published 2015)

Assays:
[1] = Shelf life testing: compound stability in solution by 1H NMR peak integration; settings: 100 millimolar in deuterated dimethylsulfoxide, 1H NMR at 25° C.
Method: Compound stability was monitored by peak integration using ^1H NMR at 25° C. with relaxation delay set to 5 seconds on a 300 Megahertz Varian NMR spectrometer. Compound purity was calculated using the following formula: 100−((sum impurity peaks)/((total impurity peaks)+(total purity peaks))*100).

[2] = Water absorption (hygroscopicity): water weight gain of the solid; type: physicochemical
Method: Compounds that absorb atmospheric moisture may cause inaccurate amount additions into formulations and are also difficult to handle. […] To quantify this characteristic, 1 millimole of each solid was placed in an open vial and enclosed in a 4 liter vessel containing 100 milliliters of exposed water. The weight of each vial was prerecorded and reweighed 18 hours later to determine the water weight gain.

Substance: Triphenylsulfonium phenolate [Compar. Example 1, reference compound]
- Compound Purity (%) 0 days ([1]; 0 days): 100%
- Compound Purity (%) 3 days ([1]; 3 days): 79%
- Compound Purity (%) 14 days ([1]; 14 days): 60%
- Hygroscopicity (in words) [2]: hygroscopic
- Weight Gain relative to Reference (%) ([2]; 1 millimole solid in open vial in 4 liter vessel with 100 milliliters exposed water, 18 hours, reference triphenylsulfonium camphorsulfonate): 520%
- Matter State After Exposure to Water ([2]; after 18 hours exposure to water vapour): Oil
- Matter State Before Exposure to Water ([2]; before exposure): Solid
